The text below walks through data of US20110288485A1, “MICRONEEDLE DEVICE” (HISAMITSU PHARMACEUTICAL CO., INC., priority 2008, published 2011).

Data set [1] is described as follows: Hairless rat in vivo absorption test by microneedles (follicle-stimulating hormone). The method, then:
Using a total of four types of microneedles, namely microneedles made of a polylactic acid having a density of 841 needles/cm^2 and a length of the needle part of 300 μm and three types of microneedles made of a polylactic acid that has a density of 400 needles/cm^2 in common but differ in the length of the needle part (h: 300 μm, 400 μm, and 500 μm), a hairless rat in vivo absorption test was conducted. The shape of any of these four types of microneedles is square pyramid, and the area of each microneedle device was 1 cm^2.
Firstly, the abdomen of a hairless rat was pierced with a microneedle device in which tips of the needles were coated with a similar coating liquid to Example 1 (30% FSH, 15% pullulan) by a similar technique to Example 1 by hand pushing. Then, plasma was collected over time (amount of blood collected: 300 μL/time) to measure the FSH concentration with a SPAC-S FSH kit (the product of TFB, Inc.) Also, in a subcutaneous administration group, 300 μL of 1 IU/mL FSH (physiological saline solution) was subcutaneously administered to the back of a hairless rat and the FSH concentration was similarly measured. It is to be noted that the time of attachment of the microneedle device was set at two hours.

A short description of data set [2]: Amount of FSH coated on microneedles (Example 1). The data set is classed as physicochemical. To be noted: coating liquid 30% follicle-stimulating hormone, 15% pullulan. The method, then:
A liquid obtained by adding 26.4 μL of [^125I]FSHaq concentrated 10-fold with Biomax (molecular weight fraction: 10,000), 14.4 mg of Cold FSH (the product of ProSpec-TechnoGene Ltd), and 7.2 mg of pullulan into an Eppendorf tube and dissolving the content by centrifugation was provided as a coating liquid (30% follicle-stimulating hormone, 15% pullulan). The coating liquid thus obtained (30% follicle-stimulating hormone, 15% pullulan) was coated on the microneedle device by the aforementioned coating method (metal mask standard: one side of an aperture 220 μm, thickness 100 μm, and humidity at room temperature 85% RH or more). Subsequently, after piercing excised human skin with the microneedle device thus coated by finger pressing (2 kg/patch), the device and the skin were placed on an acrylic cell for sampling over time. As a receptor layer, phosphate buffered saline (PBS) was used, and after mixing and stirring 1 mL of a receptor liquid obtained per sampling time and acetonitrile at 1:1 and centrifuging this mixture (15,000 rpm, 5° C., 5 min), a supernatant was collected and an FSH concentration was measured by a γ-counter as described below. […]
An amount of coating was calculated by using a microneedle device to which 1 to 5 μL of 10 times concentrated [^125I]FSHaq was added dropwise as a calibration curve by a γ-counter and a NaI counter. […]

On to follicle-stimulating hormone [FSH], for which the “effect of microneedle density on amount of FSH administered” value in data set [1] (length 300 μm, 841 vs 400 needles/cm^2) is “did not cause changes in the amount of FSH administered very much”. The “initial rise in the blood FSH concentration” value in data set [1] (microneedle device vs subcutaneous administration) is given as “faster than subcutaneous administration”. Also, the “efficiency of FSH administration by length of the microneedle (plasma FSH)” value in data set [1] (microneedle length 300, 400, 500 μm, 400 needles/cm^2, attachment two hours) worked out at 300 μm<400 μm<500 μm. In addition, the “amount of FSH coated on the microneedles” value in data set [2] was “approximately 30 μg”.
